Assay results as given in article PMC10188607, “Quaternization of high molecular weight chitosan for increasing intestinal drug absorption using Caco-2 cells as an in vitro intestinal model” (Scientific Reports, 2023).

By UniProt entry, the sequences of proteins in these tests, tags left out.
UniProt P08183, whole entry: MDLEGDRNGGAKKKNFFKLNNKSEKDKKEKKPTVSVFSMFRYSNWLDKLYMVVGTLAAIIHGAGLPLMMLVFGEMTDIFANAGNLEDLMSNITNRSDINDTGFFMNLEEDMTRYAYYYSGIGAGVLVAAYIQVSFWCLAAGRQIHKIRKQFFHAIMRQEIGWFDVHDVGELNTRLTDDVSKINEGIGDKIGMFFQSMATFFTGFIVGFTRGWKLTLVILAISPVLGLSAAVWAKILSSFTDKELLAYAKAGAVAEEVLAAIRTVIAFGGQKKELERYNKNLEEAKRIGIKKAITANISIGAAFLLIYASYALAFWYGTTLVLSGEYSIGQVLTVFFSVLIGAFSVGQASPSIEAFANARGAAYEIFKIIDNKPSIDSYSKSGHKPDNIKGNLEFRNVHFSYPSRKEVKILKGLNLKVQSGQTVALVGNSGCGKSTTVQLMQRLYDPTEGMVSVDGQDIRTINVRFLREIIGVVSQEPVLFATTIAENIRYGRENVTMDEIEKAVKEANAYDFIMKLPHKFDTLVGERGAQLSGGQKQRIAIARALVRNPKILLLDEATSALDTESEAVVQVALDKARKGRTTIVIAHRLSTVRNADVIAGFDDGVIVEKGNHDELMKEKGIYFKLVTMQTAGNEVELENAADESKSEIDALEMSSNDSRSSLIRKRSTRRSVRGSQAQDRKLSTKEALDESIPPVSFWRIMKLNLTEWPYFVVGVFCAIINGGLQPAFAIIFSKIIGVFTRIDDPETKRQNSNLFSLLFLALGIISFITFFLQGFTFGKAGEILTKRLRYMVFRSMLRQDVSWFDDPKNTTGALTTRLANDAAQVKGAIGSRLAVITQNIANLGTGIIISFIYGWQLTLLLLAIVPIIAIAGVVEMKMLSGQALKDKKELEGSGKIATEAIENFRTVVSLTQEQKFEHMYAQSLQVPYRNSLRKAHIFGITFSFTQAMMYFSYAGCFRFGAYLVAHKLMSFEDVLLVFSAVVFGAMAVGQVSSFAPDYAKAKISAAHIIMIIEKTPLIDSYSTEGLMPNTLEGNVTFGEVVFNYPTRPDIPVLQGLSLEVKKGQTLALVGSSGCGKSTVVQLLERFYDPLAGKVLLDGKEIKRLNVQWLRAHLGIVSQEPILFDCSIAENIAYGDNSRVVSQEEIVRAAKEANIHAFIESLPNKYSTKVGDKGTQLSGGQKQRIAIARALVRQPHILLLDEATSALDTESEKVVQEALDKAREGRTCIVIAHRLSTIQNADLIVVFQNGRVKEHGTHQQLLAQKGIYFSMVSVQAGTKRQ

Target: P-gp (Homo sapiens, UniProt P08183)
Assay: Bidirectional transport of [^3H]-digoxin across Caco-2 monolayers
Details: [^3H]-digoxin alone (non-treated monolayers)

C[C@H]1O[C@@H](O[C@H]2[C@@H](O)C[C@H](O[C@H]3[C@@H](O)C[C@H](O[C@H]4CC[C@@]5(C)[C@H](CC[C@@H]6[C@@H]5C[C@@H](O)[C@]5(C)[C@@H](C7=CC(=O)OC7)CC[C@]65O)C4)O[C@@H]3C)O[C@@H]2C)C[C@H](O)[C@@H]1O [[^3H]-digoxin]
efflux ratio (ER) value: 10.1
